Data reported in patent publication US4670038A, “Cyclotriphosphazatriene-derivatives as soil urease activity inhibitors” (Tennessee Valley Authority, priority 1986, dated 1987).

Tested on: soil urease
Assay: Urea hydrolysis in bands of urea plus inhibitor in Hastings silt loam soil (banded system)
Assay type: biochemical
Conditions: for Soil urease inhibition in words, banded soil tests: banded system, 3-day and 6-day tests

Structure (SMILES) | Soil urease inhibition in words, banded soil tests | Unhydrolyzed Urea, % 3 Days (Table IV, inhibitor 10 percent of urea (wt/wt), 41 mg/band, two replications, 3 days) | Unhydrolyzed Urea, % 6 Days (Table IV, inhibitor 10 percent of urea (wt/wt), 41 mg/band, two replications, 6 days)
ClP1(Cl)=NP(Cl)(Oc2ccccc2)=NP(Cl)(Oc2ccccc2)=N1 (stereo not shown) | not effective urease inhibitors |  | 
ClP1(Cl)=NP(Cl)(Cl)=NP(Cl)(Oc2ccccc2)=N1 (stereo not shown) | not effective urease inhibitors |  | 
CN(C)P1(N(C)C)=NP(Cl)(Cl)=NP(Cl)(Cl)=N1 |  | 0.0% | 0.0%
